Data as given in US9474744B2, “Beta-lactam compounds for treating diabetes” (STEM CELL MEDICINE LTD., priority 2011, dated 2016).

Experiments:
[1] = test system: encephalitogenic BP10 line; test: Adoptive EAE: BP10 T-cell line stimulated in vitro with test substance, then injected into naive rats; format: in vivo, rat; conditions: BP10 line stimulated 3 days with 5 mg/ml in stimulation medium, control untreated line
Protocol: Antigen-specific T-cell lines were established from lymph node cells that had been stimulated with myelin basic protein (MBP; 10 μg/ml) for 3 days in stimulation medium as described below. Following stimulation, the T-cell blasts were isolated on LYMPHOPREP™ (Nycomed Pharma, Oslo, Norway) and seeded in propagation medium. Propagation medium was identical to stimulation medium without autologous serum, but supplemented with fetal calf serum 10% and T-cell growth factors from the supernatant of Con A stimulated spleen cells 10% (Mor et al. (1990) J Clin Invest, 85, 1594-1598). Animals were injected intra-peritoneally with 107 MBP-stimulated T cells, following 6-8 cycles of in vitro stimulations. It is known that MBP-reactive lines undergo a reduction in pathogenicity after 6 or more in vitro stimulations. In some experiments the BP10 line was stimulated with phorbol myristate acetate (PMA; 50 ng/ml) and ionomycin (500 ng/ml) for 3 days in stimulation medium, without antigen-presenting cells.
Active EAE was induced by subcutaneous injection of 25 μg guinea-pig MBP (GpMBP) in complete Freund's adjuvant (CFA). […] Adoptive EAE was transferred by intra-peritoneal injection of guinea-pig MBP-activated cells of the BP10 line as described in Mor et al. (1993) J Clin Invest, 92, 2199-2206. […] Clinical scoring was: +1, paralysis of tail; +1.5, paresis of posterior paws and ataxia; +2, paraplegia; +3, paralysis extending to thoracic spine; +4, a moribund state.
Treatment with cefuroxime in vivo could affect many different host agents involved in EAE or AA as well as influencing the rats' bacterial flora. To test whether the antibiotic might directly modify the behavior of effector T cells, an encephalitogenic T-cell line was stimulated in the presence or absence of cefuroxime in vitro. […] The activated T cells were then washed to remove the antibiotic, the T cells were injected intra-peritoneally into naïve recipient rats (10^7 per rat), and EAE was scored. […]

[2] = test system: human CD4 T cells; test: Uptake of penicillin-modified albumin by T cells (Pen 9 western blot of cytoplasmic and nuclear fractions); format: cell-based
Protocol: To test whether penicillin-modified albumin can enter T cells, human serum albumin was incubated with penicillin, and then dialysed extensively. The resulting penicillin-modified-albumin was incubated with purified human CD4 T cells for 3 hours, and the cells were lysed and tested by western blot with monoclonal Pen 9 antibody. T cells were harvested after 1, 2, or 3 hrs. Cytoplasmic (“Cyto”) and nuclear (“Nucl”) fractions were run on SDS transferred to nitrocellulose and tested with Pen 9 antibody. […] Cytoplasmic and nuclear penicillin-labeled-albumin was seen after 1 hr, and peaked at 3 hr.

| Substance | severity of adoptive EAE mediated by the BP10 line [1] | severity of adoptive EAE mediated by the BP10 line ([1]; listed as Penicillin-modified albumin) | time of peak of cytoplasmic and nuclear penicillin-labeled albumin ([2]; harvest after 1, 2 or 3 hrs) [h] | time until detectable in the nuclei ([2]; incubated with purified human CD4 T cells) [h] |
| --- | --- | --- | --- | --- |
| penicillin-modified albumin: human serum albumin incubated with penicillin, and then dialysed extensively | enhanced the pathogenicity of the T cells | augments the pathogenicity of BP10 line | 3 | ≤ 1 |
| unmodified human albumin: human albumin not incubated with penicillin (Calbiochem) | no significant effect | – | – | – |
